The assay concerns the target cIAP-1 BIR3 domain (Homo sapiens (Human), UniProt Q13490). Nature of the assay: cIAP-1 in vitro competitive displacement binding assay (fluorescence polarization). As to conditions: AbuRPFK(5&6FAM)-amide probe (Probe B); given as ranges; read-out: IC50 or PI cIAP1.

Structures can show the parent of a compound that is named as a salt.

Consider `CCC1(CC)Oc2nc(NC(=O)[C@H](C)N)ccc2N(c2ccc(Cl)cc2)C1=O` [Example 45, (S)-2-Amino-N-[1-(4-chloro-phenyl)-3,3-diethyl-2-oxo-2,3-dihydro-1H-pyrido[2,3-b][1,4]oxazin-6-yl]-propionamide hydrochloride], for which the IC50 (usually the concentration needed to halve the response being measured) fell in the range of 10 to 1000 nM. In the case of `[2H]C([2H])([2H])[C@]([2H])(N)C(=O)Nc1ccc2c(n1)OC(CC)(CC)C(=O)N2c1ccc(Cl)cc1` [Example 46, (S)-2-Amino-N-[1-(4-chloro-phenyl)-3,3-diethyl-2-oxo-2,3-dihydro-1H-pyrido[2,3-b][1,4]oxazin-6-yl]-propionamide (2,3,3,3-d4) hydrochloride] it was 10 to 1000 nM.
